The structures appear in SMILES notation.

This assay addresses ATX (human His-tagged) (Homo sapiens (Human), UniProt Q13822). Briefly: Human ATX enzyme inhibition assay (fluorescence quenching, MR121 substrate). The following applies: 30 nM ATX, 1 μM MR121 substrate, 30° C., pH 8.0. In kind it is biochemical. As to the method:
Production of Human Full Length ATX, with and without his Tag
Autotaxin (ATX-ENPP2) Cloning:
cDNA was prepared from commercial human hematopoietic cells total RNA and used as template in overlapping PCR to generate a full length human ENPP2 ORF with or without a 3′-6×His tag. These full length inserts were cloned into the pcDNA3.1V5-His TOPO (Invitrogen) vector. The DNA sequences of several single clones were verified. The DNA from a correct full length clone was used to transfect Hek293 cells for verification of protein expression. […] ATX Fermentation: Recombinant protein was produced by large-scale transient transfection in 20 L controlled stirred tank bioreactors (Sartorius). During cell growth and transfection, temperature, stirrer speed, pH and dissolved oxygen concentration were maintained at 37° C., 120 rpm, 7.1 and 30% DO, respectively. […] Expression was analyzed by Western Blot, enzymatic assay and/or analytical IMAC chromatography. After cooling the cell suspension to 4° C. in a flow-through heat exchanger, cell separation and sterile filtration of supernatant was performed by filtration through Zeta Plus 60M02 E16 (Cuno) and Sartopore 2 XLG (Sartorius) filter units. The supernatant was stored at 4° C. prior to purification. ATX Purification: 20 liter of culture supernatant were conditioned for ultrafiltration by adding Brij 35 to a final concentration of 0.02% and by adjusting the pH to 7.0 using 1 M HCl. Then the supernatant was first microfiltered through a 0.2 μm Ultran-Pilot Open Channel PES filter (Whatman) and afterwards concentrated to 1 liter through an Ultran-Pilot Screen Channel PES filter with 30 kDa MWCO (Whatman). Prior to IMAC chromatography, NiSO4 was added to a final concentration of 1 mM. The cleared supernatant was then applied to a HisTrap column (GE Healthcare) previously equilibrated in 50 mM Na2HPO4 pH 7.0, 0.5 M NaCl, 10% glycerol, 0.3% CHAPS, 0.02% NaN3. The column was washed stepwise with the same buffer containing 20 mM, 40 mM and 50 mM imidazole, respectively. The protein was subsequently eluted using a linear gradient to 0.5 M imidazole in 15 column volumes. ATX containing fractions were pooled and concentrated using an Amicon cell equipped with a 30 kDa PES filter membrane. The protein was further purified by size exclusion chromatography on Superdex S-200 prep grade (XK 26/100) (GE Healthcare) in 20 mM BICINE pH 8.5, 0.15 M NaCl, 10% glycerol, 0.3% CHAPS, 0.02% NaN3. […] The protein was stored at −80° C. […] 10 μL of MR121 substrate solution was added (1 μM final concentration), mixed 30 times and then incubated for 15 minutes at 30° C.
Molecule `O=C(c1cc(OCC2CCOCC2)nc(C2CC2)c1)N1CC[C@@H]2CN(C(=O)[C@@H]3CCc4[nH]nnc4C3)C[C@@H]2CC1` [Example 2.21, ((3aR,8aS)-6-(2-cyclopropyl-6-((tetrahydro-2H-pyran-4-yl)methoxy)isonicotinoyl)octahydropyrrolo[3,4-d]azepin-2(1H)-yl)((R)-4,5,6,7-tetrahydro-1H-benzo[d][1,2,3]triazol-5-yl)methanone] showed an IC50 of 6 nM.

As to `O=C(c1cc(OCC2CCOCC2)cc(C2CC2)c1)N1CC[C@@H]2CN(C(=O)c3ccc4[nH]nnc4c3)C[C@@H]2CC1` [Example 1.14, ((3aR,8aS)-2-(1H-benzo[d][1,2,3]triazole-5-carbonyl)octahydropyrrolo[3,4-d]azepin-6(2H)-yl)(3-cyclopropyl-5-((tetrahydro-2H-pyran-4-yl)methoxy)phenyl)methanone], the midpoint of inhibition, the IC50, lay at 9 nM.

With `NS(=O)(=O)c1ccc(C(=O)N2C[C@@H]3CN(C(=O)c4cc(OCC5CCOCC5)nc(C5CC5)c4)C[C@@H]3C2)cc1` [Example 2.27, 4-((3aR,6aS)-5-(2-cyclopropyl-6-((tetrahydro-2H-pyran-4-yl)methoxy)isonicotinoyl)octahydropyrrolo[3,4-c]pyrrole-2-carbonyl)benzenesulfonamide], 19 nM corresponded to half-maximal inhibition (IC50).

With `O=C(NCc1c[nH]nn1)N1C[C@H]2CCN(C(=O)c3cc(OCC4CCOCC4)nc(C4CC4)c3)CC[C@H]2C1` [Example 5.04, (3aR,8aS)-N-((1H-1,2,3-triazol-4-yl)methyl)-6-(2-cyclopropyl-6-((tetrahydro-2H-pyran-4-yl)methoxy)isonicotinoyl)octahydropyrrolo[3,4-d]azepine-2(1H)-carboxamide], it took 7 nM to reach half-maximal inhibition (IC50).

`NS(=O)(=O)c1ccc(C(=O)N2C[C@H]3CN(C(=O)c4cnc(OC5CCOCC5)c(C5CC5)c4)C[C@@H]3C2)cn1` [Example 1, 5-((3aS,6aS)-5-(5-Cyclopropyl-6-(tetrahydro-2H-pyran-4-yloxy)nicotinoyl)octahydropyrrolo[3,4-c]pyrrole-2-carbonyl)pyridine-2-sulfonamide]: the IC50 worked out at 29 nM.

Consider `O=C(CCc1cnn[nH]1)N1C[C@H]2CN(C(=O)c3cc(OCC4CCOCC4)nc(C4CC4)c3)C[C@@H]2C1` [Example 1.13, 1-((3aS,6aS)-5-(2-cyclopropyl-6-((tetrahydro-2H-pyran-4-yl)methoxy)isonicotinoyl)hexahydropyrro[3,4-c]pyrrol-2(1H)-yl)-3-(1H-1,2,3-triazol-5-yl)propan-1-one], for which half-maximal inhibition (IC50) required 3 nM.

Regarding `O=C(c1cc(OCC2CCOCC2)nc(C2CC2)c1)N1CC[C@@H]2CN(C(=O)c3ccc4[nH]c(=O)[nH]c4c3)C[C@@H]2CC1` [Example 1.19, 5-((3aR,8aS)-6-(2-cyclopropyl-6-((tetrahydro-2H-pyran-4-yl)methoxy)isonicotinoyl)decahydropyrrolo[3,4-d]azepine-2-carbonyl)-1H-benzo[d]imidazol-2(3H)-one], inhibition was half-maximal at 7 nM (IC50).

In turn, `O=C(c1cc(OCC2CCOCC2)nc(C2CC2)c1)N1CC[C@@H]2CN(C(=O)[C@H]3CCc4[nH]nnc4C3)C[C@@H]2CC1` [Example 6, ((3aR,8aS)-6-(2-Cyclopropyl-6-((tetrahydro-2H-pyran-4-yl)methoxy)isonicotinoyl)octahydropyrrolo[3,4-d]azepin-2(1H)-yl)((S)-4,5,6,7-tetrahydro-1H-benzo[d][1,2,3]triazol-5-yl)methanone] came in with an IC50 of 5 nM.

In the case of `O=C(c1cc(OCC2CCOCC2)nc(C2CC2)c1)N1CC[C@@H]2CN(C(=O)N3CCc4[nH]nnc4C3)C[C@@H]2CC1` [Example 5.02, ((3aR,8aS)-6-(2-cyclopropyl-6-((tetrahydro-2H-pyran-4-yl)methoxy)isonicotinoyl)octahydropyrrolo[3,4-d]azepin-2(1H)-yl)(6,7-dihydro-1H-[1,2,3]triazolo[4,5-c]pyridin-5(4H)-yl)methanone], it took 7 nM to reach half-maximal inhibition (IC50).

Molecule `O=C(CCc1c[nH]nn1)N1C[C@H]2CCN(C(=O)c3cc(OCC4CCOCC4)cc(C4CC4)c3)CC[C@H]2C1` [Example 1.15, 1-((3aR,8aS)-6-(3-cyclopropyl-5-((tetrahydro-2H-pyran-4-yl)methoxy)benzoyl)octahydropyrrolo[3,4-d]azepin-2(1H)-yl)-3-(1H-1,2,3-triazol-4-yl)propan-1-one] had an IC50 of 32 nM.

`O=C(CCc1c[nH]c(=O)o1)N1C[C@H]2CCN(C(=O)c3cc(OCC4CCOCC4)nc(C4CC4)c3)CC[C@H]2C1` [Example 1.21, 5-(3-((3aR,8aS)-6-(2-cyclopropyl-6-((tetrahydro-2H-pyran-4-yl)methoxy)isonicotinoyl)octahydropyrrolo[3,4-d]azepin-2(1H)-yl)-3-oxopropyl)oxazol-2(3H)-one] registered an IC50 of 5 nM.

Regarding `O=C(c1cnc(OCC2CCOCC2)c(C2CC2)c1)N1C[C@@H]2CN(C(=O)[C@@H]3CCc4[nH]nnc4C3)C[C@H]2C1` [Example 1.12, ((3aS,6aS)-5-(5-cyclopropyl-6-((tetrahydro-2H-pyran-4-yl)methoxy)nicotinoyl)hexahydropyrrolo[3,4-c]pyrrol-2(1H)-yl)((R)-4,5,6,7-tetrahydro-1H-benzo[d][1,2,3]triazol-5-yl)methanone], the IC50 was 9 nM.

The molecule `Cn1c(=O)[nH]c2ccc(C(=O)N3C[C@H]4CCN(C(=O)c5cc(OCC6CCOCC6)nc(C6CC6)c5)CC[C@H]4C3)cc21` [Example 1.2, 6-((3aR,8aS)-6-(2-cyclopropyl-6-((tetrahydro-2H-pyran-4-yl)methoxy)isonicotinoyl)decahydropyrrolo[3,4-d]azepine-2-carbonyl)-1-methyl-1H-benzo[d]imidazol-2(3H)-one] returned an IC50 of 14 nM.

Molecule `O=C(c1cnc(OCC2CCOCC2)c(C2CC2)c1)N1C[C@@H]2CN(C(=O)c3ccc4[nH]nnc4c3)C[C@H]2C1` [Example 1.11, ((3aS,6aS)-5-(1H-benzo[d][1,2,3]triazole-5-carbonyl)hexahydropyrrolo[3,4-c]pyrrol-2(1H)-yl)(5-cyclopropyl-6-((tetrahydro-2H-pyran-4-yl)methoxy)pyridin-3-yl)methanone] gave an IC50 of 15 nM.

In turn, `O=C(c1cc(OCC2CCOCC2)nc(C2CC2)c1)N1CC[C@@H]2CN(C(=O)c3ccc4[nH]nnc4c3)C[C@@H]2CC1` [Example 1.07, ((3aR,8aS)-2-(1H-benzo[d][1,2,3]triazole-5-carbonyl)octahydropyrrolo[3,4-d]azepin-6(7H)-yl)(2-cyclopropyl-6-((tetrahydro-2H-pyran-4-yl)methoxy)pyridin-4-yl)methanone] came in with an IC50 of 7 nM.
